Molecules are shown by their SMILES. The list shows a part of the results, in another mix than the full data. Records with an inconclusive call do not appear. The source made the active and inactive calls. How the source made its calls: active means hit-call score of the fitted dose curve at least 0.9, where 1 is the maximum; inconclusive means response in the unintended direction; inactive means score below 0.9.

Chains of the proteins cited; added tags and fusions are not shown. Lines headed by an entry give the natural chain unless they say otherwise; changes in a name come on top.
UniProt P48729: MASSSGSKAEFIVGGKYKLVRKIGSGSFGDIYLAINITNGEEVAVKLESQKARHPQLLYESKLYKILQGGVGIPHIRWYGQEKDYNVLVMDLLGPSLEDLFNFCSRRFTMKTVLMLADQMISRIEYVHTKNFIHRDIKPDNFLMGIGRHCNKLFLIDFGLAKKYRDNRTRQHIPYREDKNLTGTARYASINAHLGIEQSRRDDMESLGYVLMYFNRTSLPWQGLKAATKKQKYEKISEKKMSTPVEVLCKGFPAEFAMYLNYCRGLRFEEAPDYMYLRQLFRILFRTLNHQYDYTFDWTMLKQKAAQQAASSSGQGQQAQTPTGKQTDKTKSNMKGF

This test concerns the target human Casein Kinase 1-alpha (CK1a), CSNK1A1 (gene 1452) (UniProt P48729). The test can be described thus: NVS_ENZ_hCK1a: NovaScreen (NVS) Enzymatic Assay for human Casein Kinase 1-alpha (CK1a). On the procedure:
NVS_ENZ_hCK1a is a biochemical, single-readout assay that uses extracted gene-proteins in a cell-free assay. Measurements were taken 1 hour after chemical dosing in a 384-well plate.NVS_ENZ_hCK1a is one of one assay component(s) measured or calculated from the NVS_ENZ_hCK1a assay. It is designed to make measurements of enzyme activity, a form of enzyme reporter, as detected with fluorescence intensity signals by Fluorescence and electrophoretic mobility shift technology.Data from the assay component NVS_ENZ_hCK1a was analyzed into 1 assay endpoint. This assay endpoint, NVS_ENZ_hCK1a, was analyzed in the positive analysis fitting direction relative to DMSO as the negative control and baseline of activity. Using a type of enzyme reporter, loss-of-signal activity can be used to understand changes in the enzymatic activity as they relate to the gene CSNK1A1. Furthermore, this assay endpoint can be referred to as a primary readout, because this assay has produced multiple assay endpoints where this one serves a enzymatic activity function. To generalize the intended target to other relatable targets, this assay endpoint is annotated to the kinase intended target family, where the subfamily is serine/threonine kinase. […]
Regarding `O=C1C2CC=CCC2C(=O)N1SC(Cl)(Cl)C(Cl)Cl` (stereo unspecified), the compound was classed as inactive.

These data come from PubChem BioAssay AID2283149 (EPA ToxCast).
